The values that follow come from ChEMBL document CHEMBL1155418, “Synthesis and structure-activity relationships of N3-pyridylpyrazinones as corticotropin-releasing factor-1 (CRF1) receptor antagonists” (Bioorg Med Chem Lett, 2010).

For series [1], the species on record is Rattus norvegicus. The series can be described thus: Metabolic stability in rat liver microsomes assessed as compound remaining after 10 mins. Background: Liver microsomes are a subcellular fraction often used to study metabolism.
Series [2] is filed under the species Homo sapiens. Description: Metabolic stability in human liver microsomes assessed as compound remaining after 10 mins.

In general, amount remaining refers to the share of the starting amount still present when the sample was taken. Consider `COc1nc(C(F)(F)F)c(Nc2nc(Cl)cn([C@H](C)C3CC3)c2=O)cc1C`, for which the fraction remaining at 10 min worked out at 77% in series [1] and 67% in series [2].

Regarding `Cc1nc(OC(F)F)ccc1Nc1nc(Cl)cn([C@H](C)C2CC2)c1=O`, the values for the fraction remaining at 10 min in series [1] and in series [2] were 74% and 97%, respectively.

As to `COC[C@@H](C1CC1)n1cc(Cl)nc(Nc2ccc(OC(F)F)nc2C)c1=O`, the amount remaining at 10 min was found to be 29% in series [1] and 98% in series [2].

As to `COC[C@H](C1CC1)n1cc(Cl)nc(Nc2ccc(OC(F)F)nc2C)c1=O`, the share remaining at 10 min is 52% in series [1] and 89% in series [2].

Consider `COC[C@H](C1CC1)n1cc(Cl)nc(Nc2c(C)cc(OC(F)F)nc2C)c1=O`, for which the amount remaining at 10 min came to 5% in series [1] and 74% in series [2].

Regarding `COc1ccc(Nc2nc(Cl)cn([C@H](C)C3CC3)c2=O)c(C(F)(F)F)n1`, the fraction remaining at 10 min came out at 65% in series [1] and 96% in series [2].

As for `COC[C@H](C1CC1)n1cc(Cl)nc(Nc2cc(C)c(OC(F)F)nc2C)c1=O`, the fraction remaining at 10 min was 89% in series [1] and 93% in series [2].
